Test results as given in patent publication US20170035787A1, “Fixed Dose Combination for Pain Relief Without Edema” (Autotelic LLC, priority 2014, published 2017).

Settings: human, in vivo

Cc1ccc(-c2cc(C(F)(F)F)nn2-c2ccc(S(N)(=O)=O)cc2)cc1 [celecoxib]
cases of Edema (%): 26.7%
